Broadly, the IC50 is the midpoint of a concentration-inhibition curve. Higher therefore signals weaker potency in that assay.

Chains of the proteins cited; added tags and fusions are not shown.
UniProt Q16539, whole entry: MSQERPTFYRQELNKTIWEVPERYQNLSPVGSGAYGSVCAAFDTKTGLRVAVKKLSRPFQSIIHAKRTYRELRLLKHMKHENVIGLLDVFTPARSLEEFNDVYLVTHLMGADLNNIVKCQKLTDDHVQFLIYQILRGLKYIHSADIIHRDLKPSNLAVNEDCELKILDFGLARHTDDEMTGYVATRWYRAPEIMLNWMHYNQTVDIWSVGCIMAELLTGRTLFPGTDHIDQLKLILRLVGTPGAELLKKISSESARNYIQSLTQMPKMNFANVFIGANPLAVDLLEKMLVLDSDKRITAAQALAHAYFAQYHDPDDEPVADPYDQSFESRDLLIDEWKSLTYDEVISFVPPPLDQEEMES

Results on one molecule are retold here after ChEMBL document CHEMBL1153968, “Discovery of 5-pyrrolopyridinyl-2-thiophenecarboxamides as potent AKT kinase inhibitors” (Bioorg Med Chem Lett, 2009).

The target in this assay is Mitogen-activated protein kinase 14 (Homo sapiens, UniProt Q16539). Put plainly: Inhibition of P38alpha.

In turn, `NC[C@H](Cc1cccc(F)c1)NC(=O)c1cc(Br)c(-c2ccnc3[nH]ccc23)s1` registered an IC50 of 25 µM.
